# From patent US8691764B2, “Inhibitors of NF-κB activity” (The Research Foundation for the State University of New York, priority 2007, dated 2014)
# Sequences of proteins named here, by UniProt entry; tags and fusion partners are left off. Residues count along the entry.
# UniProt P19838, 1-433 limits assumed: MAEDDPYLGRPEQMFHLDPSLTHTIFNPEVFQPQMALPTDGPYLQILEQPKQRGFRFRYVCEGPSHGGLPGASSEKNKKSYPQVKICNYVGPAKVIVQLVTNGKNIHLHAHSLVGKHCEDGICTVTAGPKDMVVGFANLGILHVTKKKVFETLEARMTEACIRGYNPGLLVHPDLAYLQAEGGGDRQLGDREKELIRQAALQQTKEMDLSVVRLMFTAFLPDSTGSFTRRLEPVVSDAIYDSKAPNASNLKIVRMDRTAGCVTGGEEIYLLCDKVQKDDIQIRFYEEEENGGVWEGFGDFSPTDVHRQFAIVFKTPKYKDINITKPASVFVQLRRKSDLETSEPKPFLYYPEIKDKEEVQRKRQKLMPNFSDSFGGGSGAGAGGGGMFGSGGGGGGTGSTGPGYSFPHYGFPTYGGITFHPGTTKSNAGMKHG
# UniProt Q04206, whole entry: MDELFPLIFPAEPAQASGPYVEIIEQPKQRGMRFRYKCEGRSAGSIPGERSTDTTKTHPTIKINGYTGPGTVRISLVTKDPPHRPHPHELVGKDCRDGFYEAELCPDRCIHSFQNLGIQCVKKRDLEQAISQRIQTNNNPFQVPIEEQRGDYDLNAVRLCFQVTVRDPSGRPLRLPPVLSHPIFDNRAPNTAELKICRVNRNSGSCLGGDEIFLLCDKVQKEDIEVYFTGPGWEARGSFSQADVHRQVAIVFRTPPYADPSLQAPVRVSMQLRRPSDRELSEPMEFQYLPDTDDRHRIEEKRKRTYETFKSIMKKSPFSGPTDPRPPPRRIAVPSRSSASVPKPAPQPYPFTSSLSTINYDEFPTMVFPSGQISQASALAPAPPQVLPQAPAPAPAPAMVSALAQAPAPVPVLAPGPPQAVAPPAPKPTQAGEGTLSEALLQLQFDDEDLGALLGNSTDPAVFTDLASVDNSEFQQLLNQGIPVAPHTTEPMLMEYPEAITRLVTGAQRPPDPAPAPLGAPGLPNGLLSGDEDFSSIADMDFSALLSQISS
# Biological target: NF-κB (Homo sapiens, UniProt P19838+Q04206)
# Assay: NF-κB activity ELISA (TransBinding NF-κB assay kit), BxPC-3 cells
# Format: cell-based
# Set-up: endogenous in cells; host or cells: BxPC-3
# Method: NF-κB activity was measured in these cells using the TransBinding NF-κB assay kit and following the instructions of the manufacturer (Panomics). Briefly, nuclear extracts obtained as described above, were incubated for 30 min in an ELISA plate coated with NF-κB consensus DNA sequence to which p50 protein can bind. After binding, antibody against p50 was added and incubated for 1 hour, followed by HRP-conjugated antibody for 1 hour. Afterwards, luminol/enhancer solution and stable peroxide solution were added and chemoluminescence was detected using a luminometer (Bio-Rad).
substance,measurement,setting,value
nitric oxide-donating aspirin [NO-ASA],NF-κB activity,"3 h, ELISA",inhibited NF-κB activity in a concentration-dependent manner
same,suppression of NF-κB activity,NO-ASA 20 μM,40%
same,reduction of NF-κB activity after annexin 1 knock-down,"NO-ASA 20 μM, annexin 1-specific siRNA",10%
